{
  "source": "patent US20240116921A1",
  "about": "“LACTAM (HETERO)[…] DERIVATIVES AS INHIBITORS OF ERBB2” (EnLiven Therapeutics, Inc., priority 2020, published 2024)",
  "tested_on": "A431",
  "experiment": "Cell viability assay (CellTiter Glo), A431",
  "details": "Homo sapiens, A-431, 72 h, read-out: IC50, cell viability, A431",
  "note": "pIC50: −log10 of the molar value.",
  "data": [
    {"smiles": "CCOc1cc2ncc(C#N)c(Nc3ccc(OCc4ccccn4)c(Cl)c3)c2cc1NC(=O)/C=C/CN(C)C", "note": "[Neratinib, neratinib, reference compound]", "values": [
      {"measurement": "pIC50", "value": 7.36}
    ]}
  ]
}
